The source of these data is PubChem BioAssay AID454 (Sanford-Burnham Center for Chemical Genomics, 2006).

Each structure is given as a SMILES string. The entries are a selection whose mix differs from that of the whole data set. Some of these compounds have results that are not shown, active ones among them. Calls of active or inactive are those of the source.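 The calls were made as follows: active = compound among top-ranked inhibitors of TNF-induced VCAM-1 adhesion protein staining, with the hit upheld by image or statistical review; inactive = the rest, including hits rejected on review.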

This experiment is described as follows: suppression of endothelial VCAM-1 upregulation – cell-based, plate reader, pooled HUVEC, TNFa stimulus (AID 454). The conditions noted are these: HUVEC TNFa-induced VCAM-1 surface immunofluorescence.
As for `O=C(OC1CN2CCC1CC2)C(CO)(c1ccccc1)c1ccccc1` (stereo unspecified), the compound was classed as inactive.
